Test results reported in patent publication US20240024320A1, “METHODS OF TREATING CANCER WITH A COMBINATION OF TUCATINIB AND AN ANTI-PD-1/ANTI-PD-L1 ANTIBODY” (Seagen Inc., priority 2020, published 2024).

Tested on: Fo5 tumors
Test: Fo5 trastuzumab-resistant HER2-positive murine tumor model: tumor growth and survival
Parameters: species or system FVB mice
Details: mouse, in vivo

## trastuzumab: anti-HER2 antibody given by intraperitoneal injection, 30 mg/kg loading dose then 15 mg/kg weekly
  tumor volume and survival (validation of trastuzumab resistance): resistance was validated
